Measurements: ChEMBL document CHEMBL5137063, “Medicinal Chemistry and Chemical Biology of Nurr1 Modulators: An Emerging Strategy in Neurodegeneration” (J Med Chem, 2022)

Protein sequences, listed by entry. Tags and fused reporters are not part of them.
UniProt P43354, whole entry: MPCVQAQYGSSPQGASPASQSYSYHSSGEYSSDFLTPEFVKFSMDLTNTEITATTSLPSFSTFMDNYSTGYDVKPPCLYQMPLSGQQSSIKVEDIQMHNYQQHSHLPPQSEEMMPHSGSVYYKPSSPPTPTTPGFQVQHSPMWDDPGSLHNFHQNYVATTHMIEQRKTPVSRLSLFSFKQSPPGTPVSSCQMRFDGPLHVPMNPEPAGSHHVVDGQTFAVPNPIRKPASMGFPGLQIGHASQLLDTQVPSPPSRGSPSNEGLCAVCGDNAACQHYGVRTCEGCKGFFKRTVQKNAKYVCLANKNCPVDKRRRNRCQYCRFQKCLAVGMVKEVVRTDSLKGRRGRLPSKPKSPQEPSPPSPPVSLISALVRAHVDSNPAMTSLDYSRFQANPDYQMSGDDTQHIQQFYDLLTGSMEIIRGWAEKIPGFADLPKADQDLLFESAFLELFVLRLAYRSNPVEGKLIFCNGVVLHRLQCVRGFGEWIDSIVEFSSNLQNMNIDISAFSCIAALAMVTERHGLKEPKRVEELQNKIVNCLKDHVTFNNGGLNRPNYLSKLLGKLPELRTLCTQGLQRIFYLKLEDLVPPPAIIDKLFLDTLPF

Target: Nuclear receptor subfamily 4 group A member 2 (Homo sapiens, UniProt P43354)
Experiment: Agonist activity at human Nurr1 measured by Gal4-Nurr1 hybrid reporter gene assay

## O=C(O)C[C@H](O)C[C@H](O)/C=C/c1c(C2CC2)nc2ccccc2c1-c1ccc(F)cc1 [PITAVASTATIN]
  EC50: 120 nM
